Measurements taken from PubChem BioAssay AID720708 (National Center for Advancing Translational Sciences (NCATS), 2013).
The entries are a selection whose mix differs from that of the whole data set. The source made the active and inactive calls. The call rests on the fitted dose curve; in most records, active means well fitted inhibition curve with a large enough effect; inconclusive means small, poorly fitted or top-dose-only effect; inactive means no such curve, though single readings can be large or run the other way.

The chains behind the UniProt entries cited, without tags or fusion partners. Where a name states a change or a piece, a line headed by the entry shows the natural chain unless it says otherwise.
UniProt Q8WZA2: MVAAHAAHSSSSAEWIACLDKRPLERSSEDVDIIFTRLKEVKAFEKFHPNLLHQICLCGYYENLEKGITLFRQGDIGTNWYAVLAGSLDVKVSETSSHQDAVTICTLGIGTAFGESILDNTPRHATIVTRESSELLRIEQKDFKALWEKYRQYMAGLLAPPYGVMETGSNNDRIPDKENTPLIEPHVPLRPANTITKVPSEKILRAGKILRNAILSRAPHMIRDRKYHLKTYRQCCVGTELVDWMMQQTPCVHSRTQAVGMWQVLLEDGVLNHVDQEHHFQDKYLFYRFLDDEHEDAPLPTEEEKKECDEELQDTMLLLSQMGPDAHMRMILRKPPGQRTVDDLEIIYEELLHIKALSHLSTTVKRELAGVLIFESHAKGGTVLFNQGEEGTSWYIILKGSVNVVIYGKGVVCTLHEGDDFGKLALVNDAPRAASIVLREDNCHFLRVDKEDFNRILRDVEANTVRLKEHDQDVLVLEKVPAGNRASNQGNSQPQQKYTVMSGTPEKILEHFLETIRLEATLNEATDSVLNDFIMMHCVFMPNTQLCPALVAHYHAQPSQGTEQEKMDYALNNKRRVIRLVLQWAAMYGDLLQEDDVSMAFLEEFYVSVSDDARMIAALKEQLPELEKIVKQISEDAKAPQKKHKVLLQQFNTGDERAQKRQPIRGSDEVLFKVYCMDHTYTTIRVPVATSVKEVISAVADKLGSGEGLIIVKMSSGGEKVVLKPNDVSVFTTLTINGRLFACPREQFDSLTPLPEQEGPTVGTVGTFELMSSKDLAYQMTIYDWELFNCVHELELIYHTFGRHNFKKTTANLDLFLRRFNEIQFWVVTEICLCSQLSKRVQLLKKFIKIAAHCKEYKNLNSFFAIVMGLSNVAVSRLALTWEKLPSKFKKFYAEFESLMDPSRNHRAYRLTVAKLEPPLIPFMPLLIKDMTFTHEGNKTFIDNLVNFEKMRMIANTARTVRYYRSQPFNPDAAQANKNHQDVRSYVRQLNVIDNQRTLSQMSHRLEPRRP

molecular target: Rap guanine nucleotide exchange factor 4 (Homo sapiens) (UniProt Q8WZA2); assay: qHTS for Antagonist of cAMP-regulated guanine nucleotide exchange factor 2 (EPAC2): primary screen; settings: EPAC2 GEF exchange of Rap1B-BODIPY-GDP, fluorescence; at 114 µM (top of the series) unless noted; further: nearly all actives have a fitted effect of over 45% in size
Excerpt: In multi-cellular eukaryotic organisms, the effects of cAMP are transduced by two ubiquitously-expressed intracellular cAMP receptors, the classic protein kinase A/cAMP-dependent protein kinase (PKA/cAPK) and the more recently discovered exchange protein directly activated by cAMP/cAMP-regulated guanine nucleotide exchange factor (EPAC/cAMP-GEF). Both PKA and EPAC are ubiquitously expressed in all tissues, and an increase in intracellular cAMP levels will lead to the activation of both PKA and EPAC. Therefore, careful dissections of the individual role and relative contribution of EPAC and PKA within the overall cAMP signaling in various model systems are critical for further elucidating the mechanism of cAMP signaling. To date no EPAC-specific antagonists and agonist, as well as isoform-specific agonists have been reported, and developing EPAC-specific pharmacological probes to determine the physiological functions that EPAC play in the overall cAMP-mediated signaling remains a major challenge within the research field. Furthermore, identified regulators of EPAC may lead to new mechanism-based therapeutic strategies specifically targeting the EPAC / cAMP-signaling components as EPAC has been implicated to play important roles in major human pathological conditions such as diabetes, heart disease, and cancer.
This qHTS will be used to screen the Molecular Libraries Small Molecule Repository (MLSMR) as a concentration-titration series using the NCGC unique quantitative screening (qHTS) platform to find inhibitors for EPAC2. In addition, this assay will also be used as a counterscreen for the EPAC1 qHTS. This fluorescent based assay is developed and validated for EPAC2 that measures exchange using EPAC effector Rap1 complex with BODIPY-GDP, a GDP analog with a tethered fluorophores. Inhibitors are identified by monitoring the change in fluorescence signal as the exchanged free BODIPY-GDP has a reduced fluorescence compared to Rap1-bound BODIPY-GDP. Decrease in signal (inhibition) is the desired outcome for the EPAC2 antagonist while no activity in this assay is desired for the EPAC1 antagonist counterscreen.
NIH Chemical Genomics Center [NCGC]
NIH Molecular Libraries Probe Centers Network [MLPCN]
Assay Submitter (PI): Xiaodong Cheng, The University of Texas, Medical Branch
Briefly, three uL of reagents (100 nM EPAC2, 250 nM RAP1B-BODIPY-GDP, 50 uM GDP) were dispensed into a 1536-well Greiner black solid-bottom medium binding assay plate. Controls and test compounds (23 nL) were transferred to the plate via a Kalypsys pin tool equipped with a 1536-pin array. The plates were centrifuged at 1,000 rpm for 15 seconds followed by 5 minute incubation at room temperature. The assay plates were read at 5 minute intervals for 30 minutes in the ViewLux plate reader using 480nm excitation and 540nm emission filters. The results were normalized to the agonist positive control ATA and DMSO.
On the % scale 0 is the no-effect control and ±100 the full control effect.

SMILES | activity, negative = inhibition
CCN(N=Nc1nonc1N)c1nonc1N | inactive: 0.398%
Nc1cccc2ccc([As](=O)(O)O)cc12 | inactive: -11.9%
CCCC1OP(N)(=O)OCC1CC (centres undefined) | inactive: 13%
O=C(O)c1ccccc1[As](=O)(O)O | inactive: -5.5%
CC(=O)Nc1ccc([As](=O)(O)O)cc1 | inactive: 6.5%
CN(C)P(=O)(N(C)C)n1c(Nc2ccccc2)nnc1-c1ccccc1 | inactive: -17.8%
O=P(Nc1nc2ccc(Cl)cc2s1)(c1ccccc1)c1ccccc1 | inactive: -22.8%
CN(C(=O)Cc1ccc(Cl)c(Cl)c1)[C@H]1CCCC[C@@H]1N1CCCC1 | inactive: 4.04%
Cc1ccc(NP(=O)(Oc2ccccc2F)Oc2ccccc2F)nc1 | inactive: -14.5%
CCOP(=O)(Nc1ccccc1)OCC | inactive: 9.74%
Cc1cc(SC(NC(=O)c2ccc(F)cc2)C(Cl)(Cl)Cl)ncn1 (centres undefined) | inactive: -2.74%
CC(C)CC(=O)NC(Sc1ccc(Cl)cc1)C(Cl)(Cl)Cl (centres undefined) | inactive: -2.84%
Nc1cc(N)c2nonc2c1[N+](=O)[O-] | inactive: 14.5%
O=C(NC(Sc1ccncn1)C(Cl)(Cl)Cl)c1ccccc1 (centres undefined) | inactive: -2.66%
Oc1ccccc1CNc1ccccn1 | inactive: -1.7%
O=[N+]([O-])C1C(O)C(O)C([N+](=O)[O-])C(O)C1O (centres undefined) | inactive: 6.93%
NC(=O)c1cc([N+](=O)[O-])cc([N+](=O)[O-])c1N | inactive: 6.64%
Cc1ccc(N/C(=N/P(=O)(N2CCOCC2)N2CCOCC2)N2CCOCC2)cc1 | inactive: 11.8%
CN(C(=O)Cc1ccc(Cl)c(Cl)c1)[C@H]1CCCC[C@H]1N1CCCC1 | inactive: 9.54%
Cc1ccc(OP(=O)(Nc2nccs2)Oc2ccc(C)cc2)cc1 | inactive: 7.44%
COc1ccccc1OP(=O)(Nc1ccc(C)cn1)Oc1ccccc1OC | inactive: -9.24%
Clc1ccc(Cl)c(NC2=NCC(CBr)S2)c1 (centres undefined) | inactive: -5.78%
CN1CCCC(OC(=O)C(c2ccccc2)c2ccccc2)C1 (centres undefined) | inactive: 19.2%
C[N+]1=C2C=CC=CC=C2SC12C([N+](=O)[O-])=CC([N+](=O)[O-])=C[C-]2[N+](=O)[O-] (centres undefined) | inactive: -4.05%
Nc1ccc([As](=O)(O)c2ccc(N)cc2)cc1 | inactive: 6.56%

SMILES | activity, negative = inhibition
CCN(/C(=N/P(=O)(N1CCOCC1)N1CCOCC1)N1CCOCC1)c1ccc(OC)cc1 | inactive: 3.05%
CN(C)C(=O)OCCc1n(C)cc[n+]1C | inactive: 14.2%
CC(C)=N/N=C(\N)N[N+](=O)[O-] | inactive: -0.511%
CC(C)c1nc(Nc2ccccc2)n(P(=O)(N(C)C)N(C)C)n1 | inactive: 1.6%
c1cc(-c2nn[nH]n2)ccc1-c1nn[nH]n1 | inactive: 10.8%
COc1ccc(C2=NCC(CBr)S2)cc1 (centres undefined) | inactive: 0.856%
CC(=O)N1C2C3N(C(C)=O)C1C1N(C(C)=O)C(C(N1C(C)=O)N3C(C)=O)N2C(C)=O | inactive: 0.325% [at 57.1 µM]
O=[N+]([O-])c1cccc2n[nH]nc12 | inactive: -2.38%
O=[N+]([O-])c1cc([N+](=O)[O-])c(CCNc2ccccc2)c([N+](=O)[O-])c1 | inactive: -14.3%
CCc1nc2c(n1)c1c(non1O)c1c2no[n+]1[O-] | inactive: 3.81%
Cc1ccc(NP(=O)(Oc2ccccc2)Oc2ccccc2)nc1 | inactive: -4.16%
CC(C)(C)C(=O)NC(Sc1ccncn1)C(Cl)(Cl)Cl (centres undefined) | inactive: 6.12%
O=[N+]([O-])c1ncn(CCn2ncnc2[N+](=O)[O-])n1 | inactive: -2.82%
O=[N+]([O-])c1cccc(NC2=NCC(CBr)S2)c1 (centres undefined) | inactive: -4.14%
COC(=O)C1(C)COP(=O)(Nc2ccccc2)OC1 (centres undefined) | inactive: 2.23%
O=C(O)CNc1ccc([As](=O)(O)O)cc1 | inactive: 5.47%
O=P1(N(CCCl)CCCl)OCCCS1 (centres undefined) | inactive: -1.34%
O=C(Nc1cc([As](=O)(O)O)ccc1O)c1ccccc1 | inactive: -1.04%
CC(=O)NC(SC(=S)N(C)C)C(Cl)(Cl)Cl (centres undefined) | inactive: 0.504%
O=[N+]([O-])c1ncn(CCn2cnc([N+](=O)[O-])n2)n1 | inactive: -0.187%
O=[N+]([O-])c1ccc(O)c(/C=N/Nc2ccc([N+](=O)[O-])cc2[N+](=O)[O-])c1 | inactive: -10.4%
O=[As](O)(c1ccccc1)c1ccc(O)cc1 | inactive: 0.0959%
Nc1ccc([As](=O)(O)c2ccc([N+](=O)[O-])cc2)cc1 | inactive: 1.8%
C(Cc1nn[nH]n1)Cc1nn[nH]n1 | inactive: -0.119%
O=C(OC1CN2CCC1CC2)c1cccc(Cl)c1 (centres undefined) | inactive: 7.3%

SMILES | activity, negative = inhibition
COc1ccc(N)c([N+](=O)[O-])c1[N+](=O)[O-] | inactive: -12.8%
CN(C)C1(CNC(=O)c2ccc(Cl)c(S(N)(=O)=O)c2)CCCCC1 | inactive: 2.17%
C[C@H]1OP(=O)(Oc2ccccc2)[C@H](O)[C@H](O)[C@H]1N=[N+]=[N-] (some centres undefined) | inactive: -8.57%
O=P(Nc1nc2ccccc2s1)(c1ccccc1)c1ccccc1 | inactive: -18%
O=P(Nc1nccs1)(c1ccccc1)c1ccccc1 | inactive: -6.64%
CC(C)C(=O)NC(Sc1ccccc1)C(Cl)(Cl)Cl (centres undefined) | inactive: 0.27%
c1nnnn1CCn1cnnn1 | inactive: -2.6%
COC(=O)C1(C)COP(=O)(NCc2ccccc2)OC1 (centres undefined) | inactive: 7.39%
N#C/C(=C\c1ccc(N(CCBr)CCBr)cc1)C(N)=O | inactive: -1.63%
CC(=O)c1ccc(N2CC2c2ccncc2)cc1 (centres undefined) | inactive: 5.27%
C[C@@H]1C=CCP(=O)(Oc2ccccc2)O1 (some centres undefined) | inactive: 3.16%
C[C@H]1OP(=O)(Oc2ccccc2)C[C@@H]2O[C@@H]21 (some centres undefined) | inactive: -6.75%
Cc1ccccc1CN(C)C(=O)COC(=O)C(O)(c1ccccc1)c1ccccc1 | inactive: -18.6%
CC(=O)Nc1ccc(Oc2c([N+](=O)[O-])cc([N+](=O)[O-])cc2[N+](=O)[O-])cc1 | inactive: -18%
CC(=O)Nc1ccc([As](=O)(O)O)c(O)c1 | inactive: 2.58%
CCOc1ccc(C2=NCC(CBr)S2)cc1 (centres undefined) | inactive: 19.4%
O=P1(Nc2nc3ccc(Cl)cc3s2)COc2ccccc2O1 (centres undefined) | inactive: 9.33%
CCc1cc(O)c([N+](=O)[O-])c(C)c1[N+](=O)[O-] | inactive: -4.77%
CC(C)(C)C(=O)NC(Sc1ccccc1)C(Cl)(Cl)Cl (centres undefined) | inactive: -11.9%
CC(=O)NC(SC(=S)N(CC(C)C)CC(C)C)C(Cl)(Cl)Cl (centres undefined) | inactive: -2.5%
COC(=O)c1cc2c(s1)N=C(c1ccccc1)N(C)P2(=O)N1CCOCC1 (centres undefined) | inactive: 7.17%
CCC(=O)N1C2C3N(C(=O)CC)C1C1N(C(=O)CC)C(C(N1C(=O)CC)N3C(=O)CC)N2C(=O)CC | inactive: 1.84%
O=C(OC1CN2CCC1CC2)c1ccccc1 (centres undefined) | inactive: 10.3%
CN(C)C(=O)Oc1noc2ccccc12 | inactive: -0.956%
CC(NC(=O)COC(=O)C(O)(c1ccccc1)c1ccccc1)c1ccccc1 (centres undefined) | inactive: -20.9%

SMILES | activity, negative = inhibition
O=C(NC1CCS(=O)(=O)C1)NP(=S)(Oc1ccccc1)Oc1ccccc1 (centres undefined) | inactive: -19.4%
CCNC(=S)/N=C(\N)N[N+](=O)[O-] | inactive: 4.64%
c1ccc(-c2nn[nH]n2)c(-c2nn[nH]n2)c1 | inactive: 6.87%
O=P1(N(CCCl)CCCl)OCCC2CCCCN21 (centres undefined) | inactive: 17.4%
NC(=O)Nc1ccc([As](=O)(O)O)cc1 | inactive: -2.63%
CN(C(=O)Cc1ccc(Cl)c(Cl)c1)[C@H]1CC[C@@]2(CCCO2)C[C@@H]1N1CCCC1 | inactive: 0.557%
CN(C)C(=O)c1cc([N+](=O)[O-])cc2c1-c1c(cc([N+](=O)[O-])cc1[N+](=O)[O-])C2=O | inactive: -22.2%
O=[N+]([O-])c1ccc2c(c1)nnn2O | inactive: -3.27%
CN(C(=O)Cc1ccccc1)[C@@H]1CC[C@]2(CCCO2)C[C@H]1N1CCCC1 | inactive: -8.4%
CCOP1(=S)c2c(C)nn(CCC#N)c2N=C(c2ccc(F)cc2)N1C (centres undefined) | inactive: -7.69%
N#CCCN(C(=O)COC(=O)C(O)(c1ccccc1)c1ccccc1)c1ccc(F)cc1 | inactive: -5.38%
CS(=O)(=O)c1cc([N+](=O)[O-])c2no[n+]([O-])c2c1 | inactive: -10.5%
O=P(Nc1nccs1)(c1ccccc1)c1nc2ccccc2s1 (centres undefined) | inactive: 1.16%
O=P(Nc1nccs1)(Oc1ccccc1)Oc1ccccc1 | inactive: -10.2% [at 57.1 µM]
CCOP1(=S)c2c(C)nn(CCC#N)c2N=C(c2ccccc2F)N1C (centres undefined) | inactive: -1.52%
O=C(O)COc1ccc([As](=O)(O)O)cc1[N+](=O)[O-] | inactive: 2.79%
Nc1ccccc1[As](=O)(O)c1ccccc1 | inactive: 4.04%
CCCOP(=S)(Nc1nc(N)cc(=O)[nH]1)OCCC | inactive: -7.49%
Cc1ccc(NCCc2c([N+](=O)[O-])cc([N+](=O)[O-])cc2[N+](=O)[O-])cc1 | inactive: 1.36%
Nc1cccc2c([As](=O)(O)O)cccc12 | inactive: 5.01%
COc1cc(C2NCCC3(OCCO3)C2(C)C)cc(OC)c1OC (centres undefined) | inactive: 13.4%
CS(=O)(=O)c1ccc(Cl)c(NC(=O)COC(=O)C(O)(c2ccccc2)c2ccccc2)c1 | inactive: -3.44%
COc1cc(C(=O)NCC2(N3CCOCC3)CCCCC2)cc(Cl)c1OC(C)C | inactive: -16.9%
O=[As](O)(O)c1cccnc1 | inactive: -9.23%
